Literature values, collected in patent publication US20260185992A1, “METHODS FOR SELECTING AND TREATING PATIENTS WITH RETINAL DISEASE BASED ON COMPLEMENT PATHWAY HYPERACTIVITY” (Oak Bay Biosciences Inc., priority 2024, published 2026).

Test system: patients with ocular disease (Geographic Atrophy, AMD)
Settings: Table 1, ocular disease indication; cited from earlier work

B1: Eculizumab: C5 inhibitor (antibody, chains of the INN, looked up)
heavy: QVQLVQSGAEVKKPGASVKVSCKASGYIFSNYWIQWVRQAPGQGLEWMGEILPGSGSTEYTENFKDRVTMTRDTSTSTVYMELSSLRSEDTAVYYCARYFFGSSPNWYFDVWGQGTLVTVSSASTKGPSVFPLAPCSRSTSESTAALGCLVKDYFPEPVTVSWNSGALTSGVHTFPAVLQSSGLYSLSSVVTVPSSNFGTQTYTCNVDHKPSNTKVDKTVERKCCVECPPCPAPPVAGPSVFLFPPKPKDTLMISRTPEVTCVVVDVSQEDPEVQFNWYVDGVEVHNAKTKPREEQFNSTYRVVSVLTVLHQDWLNGKEYKCKVSNKGLPSSIEKTISKAKGQPREPQVYTLPPSQEEMTKNQVSLTCLVKGFYPSDIAVEWESNGQPENNYKTTPPVLDSDGSFFLYSRLTVDKSRWQEGNVFSCSVMHEALHNHYTQKSLSLSLG
light: DIQMTQSPSSLSASVGDRVTITCGASENIYGALNWYQQKPGKAPKLLIYGATNLADGVPSRFSGSGSGTDFTLTISSLQPEDFATYYCQNVLNTPLTFGQGTKVEIKRTVAAPSVFIFPPSDEQLKSGTASVVCLLNNFYPREAKVQWKVDNALQSGNSQESVTEQDSKDSTYSLSSTLTLSKADYEKHKVYACEVTHQGLSSPVTKSFNRGEC
In the case of B1, the “Status (clinical trial outcome)” value is given as “Phase I/II Study; No”.
